For assay [1], the system named is spinalized rats. The following applies: rat, in vivo.
The subject of assay [2] is Sprague-Dawley rats. Nature of the assay: animal or person. The class given is in vivo. The conditions noted are these: Rattus norvegicus, iv, read-out: ED50 acute.
Assay [3] has as its system Sprague-Dawley rats. The conditions noted are these: rat, in vivo, iv.
The subject of assay [4] is Sprague-Dawley rats. The assay can be described thus: animal or person. The conditions noted are these: Rattus norvegicus, iv, read-out: ED50 chronic.

Each structure is given as a SMILES string. “Also recorded” adds a separate entry of the source. Read-outs that look alike come from different tables or passages of the source.

For the compound `CN1CC[C@]23c4c5ccc(O)c4O[C@H]2[C@@H](O)C=C[C@H]3[C@H]1C5` [Compound B3, morphine], the “antinociceptive action after inflammation compared with before” value in assay [1] is “tends to be weaker after inflammation; also recorded: does not change after inflammation”.

As for `CO[C@@]12CCC3(C[C@@H]1C(C)(O)C(C)(C)C)[C@H]1Cc4ccc(O)c5c4[C@@]3(CCN1CC1CC1)C2O5` (stereo partly shown) [Compound B5, buprenorphine], the 50% effective dose (ED50) – broadly, the midpoint of the dose-response relation – in assay [2] was 0.017 mg/kg; in assay [4] it was 0.055 mg/kg. Besides, the “Enhancement of action factor” value in assay [3] came out at 0.3x.

The values are drawn from patent US20080125475A1 (priority 2006, published 2008).
